Source: patent publication US10314825B2, “Agent for treatment of PBC” (KOWA COMPANY, LTD., priority 2017, dated 2019)

System: patients with dyslipidemia showing a high level of triglyceride (TG)
Test: Changes in ALP levels after 12 weeks, clinical trial data (Example 1)
Type: in vivo, human
Details: 200 mg/day micronized fenofibrate capsule formulation, 12 weeks vs baseline
Experimental: By using data (1965 cases in total) obtained in a clinical trial (8 tests with an administration period of 12 weeks or more) of Compound A, which had been performed for patients with dyslipidemia showing a high level of triglyceride (TG), the effects of Compound A for ALP and total bilirubin were investigated. Compound A was administered at a dose of 0.05 to 0.4 mg per day to Compound A group. Further, placebo or fenofibrate (100 to 200 mg per day) was administered to a control group. Each compound was administered to Compound A group and a control group for 12 weeks, and changes in the levels of ALP before and after the administration are shown in Table 1 and FIG. 1, and changes in the levels of total bilirubin before and after the administration are shown in Table 2 and FIG. 2. Note that comparisons between the groups were investigated by using covariance analysis with baseline levels used as covariates.

CC(C)OC(=O)C(C)(C)Oc1ccc(C(=O)c2ccc(Cl)cc2)cc1 [fenofibrate]
ALP level, Rate of change (LSmean): −16.9
